Only a part is listed here, and it is no random draw. Some salts or complexes appear as unconnected parts, following the source record. Active and inactive are the calls of the source. No stated cut-off is given here; in the data, active means fluorescence above about 47; inactive means the rest.

The assay can be described thus: green autofluorescence of compounds with avidin beads – biophysical, 488/530 nm, flow cytometry, artefact control, profiling panel (AID 1775). The note with it: compound fluorescence 488/530 nm, at 10 µM, stronger effect = higher value.
For `Cc1nc2ccc3ccccc3c2s1.O=[N+]([O-])c1cc([N+](=O)[O-])c(O)c([N+](=O)[O-])c1`, the fluorescence (KMESF) was inactive: 10.

Take `O=[N+]([O-])c1cc([N+](=O)[O-])c(-n2nnc3ccccc32)c([N+](=O)[O-])c1`: the fluorescence (KMESF) was inactive: 7.

On to `CP(=O)(Nc1ccc(SC(F)(F)F)cc1)Oc1ccccc1` (configuration not stated), for which the fluorescence (KMESF) is inactive: 5.

Take `CCCOc1ccc(NP(C)(=O)Oc2ccc(Cl)cc2)cc1` (configuration not stated): the fluorescence (KMESF) is inactive: 18.

On to `COc1ccccc1OP(C)(=O)Nc1c(C)cccc1C` (configuration not stated), for which the fluorescence (KMESF) was inactive: 9.

Regarding `CN1CCCCC1COC(=O)C1(O)c2ccccc2CCc2ccccc21` (configuration not stated), the fluorescence (KMESF) was inactive: 15.

On to `CCOC(=O)C(CC)C1=NC(C)(C)Cc2ccccc21.O=[N+]([O-])c1cc([N+](=O)[O-])c(O)c([N+](=O)[O-])c1` (configuration not stated), for which the fluorescence (KMESF) is inactive: 3.

As for `O=[N+]([O-])c1cc([N+](=O)[O-])c(Nc2nnnn2CCO)c([N+](=O)[O-])c1`, the fluorescence (KMESF) was inactive: 8.

On to `CC1=NCCc2c1[nH]c1ccccc21.O=[N+]([O-])c1cc([N+](=O)[O-])c(O)c([N+](=O)[O-])c1`, for which the fluorescence (KMESF) was inactive: 7.

Take `O=C(O)c1cccc(Nc2c([N+](=O)[O-])cc([N+](=O)[O-])cc2[N+](=O)[O-])c1`: the fluorescence (KMESF) is inactive: 7.

`CP(=O)(Nc1cccc(Br)c1)Oc1ccccc1` (configuration not stated): the fluorescence (KMESF) is inactive: 12.

In the case of `Cc1cc(C)cc(OP(C)(=O)Nc2ccccn2)c1` (configuration not stated), the fluorescence (KMESF) is inactive: 15.

Regarding `Cc1ccc(C)c(NP(C)(=O)Oc2ccccc2)c1` (configuration not stated), the fluorescence (KMESF) was inactive: 0.

For the compound `Cc1cc(C)cc(OP(C)(=O)Nc2ccc(C)cc2C)c1` (configuration not stated), the fluorescence (KMESF) was inactive: 14.

For `CCOC(=O)c1ccc(NP(C)(=O)Oc2cc(C)cc(C)c2)cc1` (configuration not stated), the fluorescence (KMESF) was inactive: 14.

Regarding `COc1ccccc1OP(C)(=O)Nc1cccc(Br)c1` (configuration not stated), the fluorescence (KMESF) was inactive: 9.

Consider `CCN(CC)CCCOC(=O)C(O)(c1ccccc1)c1ccccc1`, for which the fluorescence (KMESF) is inactive: 11.

In the case of `COc1ccc(OP(C)(=O)Nc2cccc(F)c2)cc1` (configuration not stated), the fluorescence (KMESF) is inactive: 9.

For the compound `COc1ccccc1OP(C)(=O)Nc1cc(Cl)ccc1C` (configuration not stated), the fluorescence (KMESF) is inactive: 11.

Consider `Cc1cc(C)cc(OP(C)(N)=O)c1` (configuration not stated), for which the fluorescence (KMESF) was inactive: 11.

Consider `CCOC(=O)c1ccc(NP(C)(=O)Oc2ccccc2)cc1` (configuration not stated), for which the fluorescence (KMESF) is inactive: 6.

For the compound `Cc1ccc(NP(C)(=O)Oc2ccccc2)c(C)c1` (configuration not stated), the fluorescence (KMESF) was inactive: 10.

For `COc1ccccc1OP(C)(=O)Nc1ccc(C)cc1` (configuration not stated), the fluorescence (KMESF) is inactive: 18.

Consider `Cc1cccc(C)c1OP(C)(N)=O` (configuration not stated), for which the fluorescence (KMESF) was inactive: 11.

Regarding `CC(C)(C)c1ccc(OP(C)(=O)Nc2ccc(SC(F)(F)F)cc2)cc1` (configuration not stated), the fluorescence (KMESF) was inactive: 12.

Consider `O=[N+]([O-])c1ccc2c(c1)C=Nc1ccccc1O2`, for which the fluorescence (KMESF) was inactive: 9.

As to `COc1ccccc1OP(C)(=O)Nc1ccccc1` (configuration not stated), the fluorescence (KMESF) is inactive: 7.

In the case of `CP(=O)(Nc1ccccc1Br)Oc1ccccc1` (configuration not stated), the fluorescence (KMESF) was inactive: 8.

As to `CP(=S)(Nn1cnnc1)Oc1ccccc1` (configuration not stated), the fluorescence (KMESF) was inactive: 5.

In the case of `CP(=O)(Nc1ccccn1)Oc1ccc(Cl)cc1` (configuration not stated), the fluorescence (KMESF) is inactive: 37.

Take `CCOP(C)(=S)SCC(=O)NC(C)C(=O)O` (configuration not stated): the fluorescence (KMESF) is inactive: 12.

As for `CCOC(=O)c1ccc(NP(C)(=O)Oc2ccc(OC)cc2)cc1` (configuration not stated), the fluorescence (KMESF) was inactive: 16.

For `Cc1cc(C)cc(OP(C)(=O)Nc2ccc(SC(F)(F)F)cc2)c1` (configuration not stated), the fluorescence (KMESF) is inactive: 5.

For `CCc1ccc(OP(C)(=O)N2CCN(c3ccc([N+](=O)[O-])cc3)CC2)cc1` (configuration not stated), the fluorescence (KMESF) was inactive: 7.

As for `CP(=O)(NC(=O)Nc1ccccc1)Oc1ccccc1` (configuration not stated), the fluorescence (KMESF) was inactive: 7.

Turning to `CP(=O)(Oc1ccccc1)OC(c1ccccc1)C(F)(F)F` (configuration not stated), the fluorescence (KMESF) is inactive: 10.

On to `Cc1cccc(C)c1OP(C)(=O)Nc1ccc(SC(F)(F)F)cc1` (configuration not stated), for which the fluorescence (KMESF) is inactive: 11.

Consider `CP(=O)(Nc1ccc(SC(F)(F)F)cc1)Oc1ccc(Cl)cc1` (configuration not stated), for which the fluorescence (KMESF) was inactive: 9.

As to `CN(C)C(=O)c1c([N+](=O)[O-])cc([N+](=O)[O-])cc1[N+](=O)[O-]`, the fluorescence (KMESF) was inactive: 9.

Take `CP(=O)(Nc1ccc(Cl)cc1)Oc1ccc(F)cc1` (configuration not stated): the fluorescence (KMESF) is inactive: 10.

As to `CC(C)(C)c1ccc(OP(C)(=O)O)cc1`, the fluorescence (KMESF) was inactive: 26.

With `COc1ccccc1OP(C)(=O)Nc1ccccc1Br` (configuration not stated), the fluorescence (KMESF) was inactive: 28.

On to `CCc1ccc(OP(C)(=O)Nc2cccnc2)cc1` (configuration not stated), for which the fluorescence (KMESF) was inactive: 12.

Turning to `CP(=O)(Oc1ccccc1)N1CCOC1=O` (configuration not stated), the fluorescence (KMESF) is inactive: 8.

Turning to `O=C(OCCCN1CCCC1)C(O)(c1ccccc1)C1CCCCC1` (configuration not stated), the fluorescence (KMESF) was inactive: 17.

Regarding `COc1ccc(OP(C)(=O)Nc2ccc(Br)cc2)cc1` (configuration not stated), the fluorescence (KMESF) is inactive: 9.

As to `CCN(CC)CC(O)COC(=O)C(O)(c1ccccc1)C1CCCCC1` (configuration not stated), the fluorescence (KMESF) is inactive: 6.

For `CP(=O)(OC12CC3CC(CC(C3)C1)C2)OC12CC3CC(CC(C3)C1)C2`, the fluorescence (KMESF) was inactive: 12.

`CCOC(=O)c1ccc(NP(C)(=O)Oc2ccc(Cl)cc2)cc1` (configuration not stated): the fluorescence (KMESF) was inactive: 2.

On to `CP(=O)(OCCOc1ccccc1)OCCOc1ccccc1`, for which the fluorescence (KMESF) is inactive: 14.

`CP(=O)(Nc1ccc(Cl)cc1Cl)Oc1ccccc1` (configuration not stated): the fluorescence (KMESF) was inactive: 9.

`Cc1nc2ccc3ccccc3c2o1.O=[N+]([O-])c1cc([N+](=O)[O-])c(O)c([N+](=O)[O-])c1`: the fluorescence (KMESF) is inactive: 11.

As for `COc1ccc(OP(C)(=O)Nc2ccccc2Br)cc1` (configuration not stated), the fluorescence (KMESF) was inactive: 13.

Take `COc1ccccc1OP(C)(=O)Nc1ccc(C)c(C)c1` (configuration not stated): the fluorescence (KMESF) is inactive: 6.

Take `Cc1cc(C)cc(OP(C)(=O)Nc2cccc(C(F)(F)F)c2)c1` (configuration not stated): the fluorescence (KMESF) is inactive: 13.

For `CCc1ccc(OP(C)(=O)O)cc1`, the fluorescence (KMESF) was inactive: 32.

Take `COc1ccccc1OP(C)(=O)Nc1ccc(C)cc1C` (configuration not stated): the fluorescence (KMESF) was inactive: 17.

Turning to `CP(=O)(Nc1ccccn1)Oc1ccccc1` (configuration not stated), the fluorescence (KMESF) was inactive: 9.

Take `O=[N+]([O-])c1cc([N+](=O)[O-])c(Nc2ccccn2)c([N+](=O)[O-])c1`: the fluorescence (KMESF) was inactive: 10.

In the case of `Cc1c(NP(C)(=O)Oc2ccc(C(C)C)cc2)c(=O)n(-c2ccccc2)n1C` (configuration not stated), the fluorescence (KMESF) was inactive: 11.

For the compound `CN(C)CCOC(=O)C(O)(c1ccccc1)C1CCCC1` (configuration not stated), the fluorescence (KMESF) is inactive: 4.

Regarding `COc1ccc(OP(C)(=O)Nc2ccccn2)cc1` (configuration not stated), the fluorescence (KMESF) was inactive: 4.

As for `COc1ccccc1OP(C)(=O)Nc1ccc(Br)cc1` (configuration not stated), the fluorescence (KMESF) is inactive: 35.

On to `COc1ccc2c(c1O)-c1c(O)c(OC)cc3c1[C@H](C2)[N+](C)(C)CC3.O=[N+]([O-])c1cc([N+](=O)[O-])c([O-])c([N+](=O)[O-])c1[O-]`, for which the fluorescence (KMESF) is inactive: 10.

In the case of `O=C(OCCN1CCN(CCOCc2ccccc2)CC1)C(O)(c1ccccc1)c1ccccc1`, the fluorescence (KMESF) is inactive: 5.

In the case of `O=C(OC1CN2CCC1CC2)c1ccc([N+](=O)[O-])cc1` (configuration not stated), the fluorescence (KMESF) is inactive: 8.

Regarding `CC(C)c1ccc(OP(C)(=O)Nc2ccc(SC(F)(F)F)cc2)cc1` (configuration not stated), the fluorescence (KMESF) was inactive: 3.

Consider `CP(=O)(Nc1ccccc1F)Oc1ccccc1` (configuration not stated), for which the fluorescence (KMESF) is inactive: 9.

With `CCCCCOc1ccc(NP(C)(=O)Oc2ccc(Cl)cc2Cl)cc1` (configuration not stated), the fluorescence (KMESF) was inactive: 6.

Regarding `CP(=O)(Nc1ccccc1)Oc1ccc(F)cc1` (configuration not stated), the fluorescence (KMESF) was inactive: 37.

For the compound `COc1ccc(OP(C)(=O)Nc2ccc(SC(F)(F)F)cc2)cc1` (configuration not stated), the fluorescence (KMESF) is inactive: 8.

As for `CCOC(=O)c1ccc(NP(C)(=O)Oc2ccc(F)cc2)cc1` (configuration not stated), the fluorescence (KMESF) was inactive: 5.

Turning to `Cc1cc(-c2cccc3ccccc23)c(C)cn1.O=[N+]([O-])c1cc([N+](=O)[O-])c(O)c([N+](=O)[O-])c1`, the fluorescence (KMESF) was inactive: 20.

`O=[N+]([O-])c1cc([N+](=O)[O-])c(NCC2CCS(=O)(=O)C2)c([N+](=O)[O-])c1` (configuration not stated): the fluorescence (KMESF) is inactive: 8.

Regarding `O=[N+]([O-])c1ccc(OP2(=O)COCCO2)cc1` (configuration not stated), the fluorescence (KMESF) is inactive: 7.

With `COc1ccc(NP(C)(=O)Oc2ccccc2OC)cc1` (configuration not stated), the fluorescence (KMESF) was inactive: 5.

In the case of `CN(C)CCOC(=O)C(O)(c1ccccc1)C1CCCCC1` (configuration not stated), the fluorescence (KMESF) was inactive: 39.

As to `COc1ccc(OP(C)(=O)Nc2cccc(Br)c2)cc1` (configuration not stated), the fluorescence (KMESF) was inactive: 33.

In the case of `Cc1ccccc1NP(C)(=O)Nc1ccccc1C`, the fluorescence (KMESF) was inactive: 16.

Turning to `CP(=O)(Nc1ccc2c(c1)OCCO2)Oc1ccccc1` (configuration not stated), the fluorescence (KMESF) is inactive: 18.

`CCOP(C)(=S)SCC(=O)NC(C)(CC)C(=O)O` (configuration not stated): the fluorescence (KMESF) was inactive: 15.

With `CP(=O)(Nc1ccc(SC(F)(F)F)cc1)Oc1ccc(F)cc1` (configuration not stated), the fluorescence (KMESF) was inactive: 6.

These data come from PubChem BioAssay AID1775 (NMMLSC, 2009).
